The source of these data is ChEMBL document CHEMBL4732047, “New imidazopyridines with phosphodiesterase 4 and 7 inhibitory activity and their efficacy in animal models of inflammatory and autoimmune diseases” (Eur J Med Chem, 2021).

The chains behind the UniProt entries cited, without tags or fusion partners. Where a name states a change or a piece, a line headed by the entry shows the natural chain unless it says otherwise.
UniProt Q9Y233: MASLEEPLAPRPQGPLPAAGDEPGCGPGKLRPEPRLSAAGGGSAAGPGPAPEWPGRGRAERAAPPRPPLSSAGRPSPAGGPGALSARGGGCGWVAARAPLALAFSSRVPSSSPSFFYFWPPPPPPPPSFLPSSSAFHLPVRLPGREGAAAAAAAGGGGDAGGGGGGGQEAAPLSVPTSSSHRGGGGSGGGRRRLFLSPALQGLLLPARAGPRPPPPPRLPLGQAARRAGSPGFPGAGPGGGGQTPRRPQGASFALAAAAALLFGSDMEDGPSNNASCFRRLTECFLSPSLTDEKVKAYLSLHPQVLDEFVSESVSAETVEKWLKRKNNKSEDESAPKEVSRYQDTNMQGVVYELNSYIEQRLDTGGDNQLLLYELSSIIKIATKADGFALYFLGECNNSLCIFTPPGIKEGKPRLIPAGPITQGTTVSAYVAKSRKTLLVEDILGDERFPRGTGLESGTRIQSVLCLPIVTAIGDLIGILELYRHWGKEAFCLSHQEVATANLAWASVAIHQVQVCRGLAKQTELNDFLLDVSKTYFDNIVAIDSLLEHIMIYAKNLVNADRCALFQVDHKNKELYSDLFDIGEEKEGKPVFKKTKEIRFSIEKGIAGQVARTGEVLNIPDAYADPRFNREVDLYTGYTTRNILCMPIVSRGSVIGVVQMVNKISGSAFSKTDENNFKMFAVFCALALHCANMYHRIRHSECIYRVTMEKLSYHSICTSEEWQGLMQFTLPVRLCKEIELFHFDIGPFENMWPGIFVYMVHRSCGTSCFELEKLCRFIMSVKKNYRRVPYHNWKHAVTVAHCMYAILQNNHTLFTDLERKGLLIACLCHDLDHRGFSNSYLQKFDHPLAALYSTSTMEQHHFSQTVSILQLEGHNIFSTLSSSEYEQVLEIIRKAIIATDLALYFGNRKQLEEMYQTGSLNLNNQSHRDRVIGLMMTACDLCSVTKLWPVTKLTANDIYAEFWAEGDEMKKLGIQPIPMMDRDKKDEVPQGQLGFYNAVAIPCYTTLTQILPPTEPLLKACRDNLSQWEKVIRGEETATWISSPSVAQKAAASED

This test addresses cAMP and cAMP-inhibited cGMP 3',5'-cyclic phosphodiesterase 10A (Homo sapiens, UniProt Q9Y233). The test is described as follows: Inhibition of human recombinant PDE10A using cAMP as substrate incubated for 20 mins measured by Kinase Glo reagent based microplate reader assay.

By IC50 is commonly meant the concentration that gives 50% inhibition.

`COc1ccc(Cc2nccc3cc(OC)c(OC)cc23)cc1OC` [PAPAVERINE]: the IC50 is 38 nM.
